The record followed here is ChEMBL document CHEMBL1131645, “Synthesis and activity studies of N-[omega-N'-(adamant-1'-yl)aminoalkyl]- 2-(4'-dimethylaminophenyl)acetamides: in the search of selective inhibitors for the different molecular forms of acetylcholinesterase” (Bioorg Med Chem Lett, 1998).

The target in experiment [1] is T1, Acetylcholinesterase (Bos taurus, UniProt P23795).
T1 sequence (P23795 whole entry): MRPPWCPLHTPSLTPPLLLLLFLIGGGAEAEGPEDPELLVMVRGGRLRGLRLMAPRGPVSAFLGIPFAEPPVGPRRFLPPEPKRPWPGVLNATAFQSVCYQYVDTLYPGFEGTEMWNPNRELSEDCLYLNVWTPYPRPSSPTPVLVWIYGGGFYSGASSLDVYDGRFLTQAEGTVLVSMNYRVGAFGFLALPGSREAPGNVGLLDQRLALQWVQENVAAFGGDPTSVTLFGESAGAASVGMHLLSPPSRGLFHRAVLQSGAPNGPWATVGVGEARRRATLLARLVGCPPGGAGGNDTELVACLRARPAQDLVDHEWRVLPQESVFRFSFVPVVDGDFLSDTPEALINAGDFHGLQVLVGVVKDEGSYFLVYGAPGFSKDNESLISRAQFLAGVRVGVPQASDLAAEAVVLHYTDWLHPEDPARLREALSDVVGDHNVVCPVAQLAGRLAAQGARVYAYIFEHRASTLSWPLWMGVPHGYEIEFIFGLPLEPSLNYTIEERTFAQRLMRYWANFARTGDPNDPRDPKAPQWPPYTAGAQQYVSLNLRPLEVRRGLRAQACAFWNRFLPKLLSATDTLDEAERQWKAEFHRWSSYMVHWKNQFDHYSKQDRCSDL

The target of experiment [2] is T1, Acetylcholinesterase. The source holds these as a separate data set.

In general, IC50 refers to the concentration needed to halve the response being measured. Low values mean greater potency, high ones weaker potency. On to `CNC(=O)Oc1ccc2c(c1)[C@]1(C)CCN(C)[C@@H]1N2C` [PHYSOSTIGMINE], for which the IC50 in experiment [1] came to 123 nM; in experiment [2] it was 146 nM.
